Data from PMC3353486, “Fluorescence Correlation Spectroscopy in Drug Discovery: Study of Alexa532-Endothelin 1 Binding to the Endothelin ETA Receptor to Describe the Pharmacological Profile of Natural Products” (The Scientific World Journal, 2012).

Sequences of proteins named here, by UniProt entry; tags and fusion partners are left off. Residues count along the entry.
UniProt P26684, 21-426: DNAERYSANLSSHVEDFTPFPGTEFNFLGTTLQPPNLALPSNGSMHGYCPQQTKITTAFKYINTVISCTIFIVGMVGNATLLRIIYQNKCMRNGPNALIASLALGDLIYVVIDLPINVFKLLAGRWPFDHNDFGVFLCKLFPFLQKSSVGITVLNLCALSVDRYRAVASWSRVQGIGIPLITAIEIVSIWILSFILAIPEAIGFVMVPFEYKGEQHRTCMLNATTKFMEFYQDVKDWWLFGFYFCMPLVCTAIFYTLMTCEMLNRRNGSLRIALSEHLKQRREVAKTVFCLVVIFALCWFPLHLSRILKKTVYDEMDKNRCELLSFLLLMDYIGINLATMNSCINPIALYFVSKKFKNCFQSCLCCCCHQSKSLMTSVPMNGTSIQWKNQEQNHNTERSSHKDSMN

Columns and labels:
[1] = target: T1, endothelin ETA receptor (Rattus norvegicus, UniProt P26684); assay: FCS displacement of prebound Alexa532-ET1 from ETA receptor on living A10 cells
[2] = target: T1, endothelin ETA receptor; assay: FCS time-dependent binding of Alexa532-ET1 after preincubation of A10 cells with BQ-123; set-up: endothelin ETA receptor-ligand complex alone and under the influence of a semisynthetic selective antagonist and a fungal extract on living A10 cells; endogenous in cells; host or cells: A10 cells; conditions: for receptor-ligand complex to which ligand binding was found (in words): 10 min preincubation with 1 μM BQ-123, 5 nM Alexa532-ET1; for total binding of Alexa532-ET1, time course (in words): 10 min preincubation with 1 μM BQ-123, 5 nM Alexa532-ET1, 30 to 60 min
Description: The coverslips were placed in a Nunc 12 well plate, and the cells were cultured for 7 days in Dulbecco's Modified Essential Media supplemented with L-glutamine (2 mM), 1% of a solution containing 10000 I.U./mL penicillin and 10000 μg/mL streptomycin (GIBCO, Invitrogen, Karlsruhe, Germany) and 20% foetal calf serum. The cells were grown in 5% CO2 at 37°C until confluence was reached.

[3] = 1 μM BQ-123, 30 min, 14.3 nM Alexa532-ET1
[4] = 1 μM BQ-123, 30 min, after 45 min with 14.3 nM Alexa532-ET1, mean ± SD of six independent experiments
[5] = 10 min preincubation with 1 μM BQ-123, 5 nM Alexa532-ET1, at 30 min

Substance: BQ-123
- remaining (nonspecific) binding of Alexa532-ET1 [1, 3]: 8 ± 2%
- remaining (nonspecific) binding of Alexa532-ET1, concentration [1, 3]: 1.1 ± 0.3 nM
- Free L with D free [%] after displacement [1, 4]: 92 ± 2%
- R-L with D bound1 [%] after displacement [1, 4]: 5 ± 2%
- R-L with D bound2 [%] after displacement [1, 4]: 3 ± 1%
- pharmacological profile at ETA receptors on A10 cells (in words) ([1]; concluded from FCS binding to “inactive” receptor state): inverse agonists of ETA receptors
- receptor-ligand complex to which ligand binding was found (in words) [2]: only for the unrestricted diffusing receptor-ligand complex
- total binding of Alexa532-ET1, time course (in words) [2]: stable up to 60 min
- total binding of Alexa532-ET1, time course (in words) ([2]; listed as BQ123): stable after 60 min
- total binding of Alexa532-ET1 ([2]; 10 min preincubation with 1 μM BQ-123, 5 nM Alexa532-ET1, after 15 min): 14.4 ± 5.1%
- nonspecific binding of Alexa532-ET1 [2, 5]: 1.6 ± 0.2 nM
- total binding of Alexa532-ET1 [2, 5]: 32.9 ± 3.9%
- receptor-ligand complex to which ligand binding was found (in words) ([2]; listed as BQ123): selectively found for unrestricted diffusing receptor-ligand complexes
- binding affinity to the “inactive” receptor state (in words) ([2]; preincubation with 1 μM BQ-123, 5 nM Alexa532-ET1, slow diffusion time constant): strong binding affinity to the “inactive” receptor state
